System: Urease
Assay: Test for urease-inhibiting effect in soil (ammonia released from urea trapped as ammonium, t50 calculated)
Conditions: Table 1, Ureidophosphorsäurediamide; Konzentration 0,1 % Harnstoff N-bez.; 30 g Boden, 40 % der maximalen Wasserkapazität, 50 mg Harnstoff; t50 = time in days in which 50 % of the urea is converted by urease

| Molecule | t50-Wert (d) |
| --- | --- |
| Diaminophosphorylharnstoff | 0,5 d |
| N-(Diaminophosphoryl)-N'-phenylharnstoff | 1,0 d |
| NP(N)(=O)NC(=O)Nc1ccccc1 | 2,5 d |

Same assay, conditions: Table 1, Ureidophosphorsäurediamide; Konzentration 0,4 % Harnstoff N-bez.; 30 g Boden, 40 % der maximalen Wasserkapazität, 50 mg Harnstoff; t50 = time in days in which 50 % of the urea is converted by urease

| Molecule | t50-Wert (d) |
| --- | --- |
| NC(=O)NP(N)(N)=O | 6,1 d |

Same assay, conditions: Table 2, Carbamidsäureesterphosphorsäurediamide; Konzentration 0,1 % Harnstoff N-bez.; 30 g Boden, 40 % der maximalen Wasserkapazität, 50 mg Harnstoff; t50 = time in days in which 50 % of the urea is converted by urease

| Molecule | t50-Wert (d) |
| --- | --- |
| 1-Adipinsäurebis-(diaminophosphorylsemicarbazid) | 7,7 d |
| Diaminophosphorylcarbamidsäuremethylester | 7,1 d |
| Diaminophosphorylcarbamidsäureisopropylester | 5,8 d |
| NP(N)(=O)NC(=O)NNC(=O)c1ccccc1 | 9,6 d |
| Diaminophosphorylcarbamidsäurebenzylester | 5,5 d |

Reference: patent publication EP1163245B1, “(THIO) PHOSPHORYL TRIAMIDES FOR REGULATING THE ENZYMATIC UREA HYDROLYSIS” (dated 2000)
